Measurements from ChEMBL document CHEMBL1614629, “Extrapolation of human pharmacokinetic parameters from rat, dog, and monkey data: Molecular properties associated with extrapolative success or failure” (J Pharm Sci, 2005).

Test: Volume of distribution at steady state in dog after iv administration
Format: ADME, organism-based, Canis lupus familiaris
Conditions: in vivo, read-out: Vdss

Vd: 0.54 L/kg
Structure (SMILES): CN(Cc1cnc2nc(N)nc(N)c2n1)c1ccc(C(=O)N[C@@H](CCC(=O)O)C(=O)O)cc1 [METHOTREXATE]
